The values that follow come from patent publication US11401279B2, “Pyrido[3,2-d]pyrimidine compounds as immunomodulators” (Incyte Corporation, priority 2019, dated 2022).

The chains behind the UniProt entries cited, without tags or fusion partners. Residues count along the entry.
UniProt Q9NZQ7, 19-238 limits assumed: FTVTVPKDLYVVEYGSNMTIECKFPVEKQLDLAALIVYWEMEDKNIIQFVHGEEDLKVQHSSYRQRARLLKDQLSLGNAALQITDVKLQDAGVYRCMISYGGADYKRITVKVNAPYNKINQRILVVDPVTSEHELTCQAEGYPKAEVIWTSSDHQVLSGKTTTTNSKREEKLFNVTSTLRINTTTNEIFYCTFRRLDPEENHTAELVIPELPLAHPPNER
UniProt Q9NZQ7, 19-290 limits assumed: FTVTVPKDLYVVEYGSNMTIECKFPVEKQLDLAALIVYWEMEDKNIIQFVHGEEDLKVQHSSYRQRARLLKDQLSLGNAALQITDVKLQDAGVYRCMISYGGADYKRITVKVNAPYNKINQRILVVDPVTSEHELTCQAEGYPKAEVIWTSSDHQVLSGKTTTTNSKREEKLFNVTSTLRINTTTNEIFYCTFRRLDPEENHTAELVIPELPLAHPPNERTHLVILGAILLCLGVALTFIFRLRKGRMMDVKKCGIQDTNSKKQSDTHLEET

A word on the IC50: it is the concentration that inhibits the measured activity by half. The EC50 is the midpoint of the concentration-response curve. The term Vss denotes the apparent volume that relates the amount in the body to the concentration in plasma or blood. A lower Vss goes with confinement near the circulation. By Cmax is commonly meant the maximum level reached in the sampled fluid or tissue.

Data set [1] concerns the target PD-1/PD-L1 (Homo sapiens (Human), UniProt Q9NZQ7). Kind of data set: Homogeneous Time-Resolved Fluorescence (HTRF) PD-1/PD-L1 binding assay. As to conditions: read-out: HTRF binding IC50; recombinant human PD-1 and PD-L1. As to the method:
The assays were conducted in a standard black 384-well polystyrene plate with a final volume of 20 μL. Inhibitors were first serially diluted in DMSO and then added to the plate wells before the addition of other reaction components. The final concentration of DMSO in the assay was 1%. The assays were carried out at 25° C. in the PBS buffer (pH 7.4) with 0.05% Tween-20 and 0.1% BSA. Recombinant human PD-L1 protein (19-238) with a His-tag at the C-terminus was purchased from AcroBiosystems (PD1-H5229). Recombinant human PD-1 protein (25-167) with Fc tag at the C-terminus was also purchased from AcroBiosystems (PD1-H5257). PD-L1 and PD-1 proteins were diluted in the assay buffer and 10 μL was added to the plate well. Plates were centrifuged and proteins were preincubated with inhibitors for 40 minutes. The incubation was followed by the addition of 10 μL of HTRF detection buffer supplemented with Europium cryptate-labeled anti-human IgG (PerkinElmer-AD0212) specific for Fc and anti-His antibody conjugated to SureLight®-Allophycocyanin (APC, PerkinElmer-AD0059H). After centrifugation, the plate was incubated at 25° C. for 60 min. before reading on a PHERAstar FS plate reader (665 nm/620 nm ratio). Final concentrations in the assay were—3 nM PD1, 10 nM PD-L1, 1 nM europium anti-human IgG and 20 nM anti-His-Allophycocyanin. IC50 determination was performed by fitting the curve of percent control activity versus the log of the inhibitor concentration using the GraphPad Prism 5.0 software.

Data set [2] has as its target PD-L1 (Homo sapiens (Human), UniProt Q9NZQ7). Kind of data set: PD-L1 whole blood internalization assay. As to conditions: read-out: Whole Blood IC50; PD-L1 internalization in human whole blood, CD14+ cells, interferon γ, 24 hour. On the procedure:
To determine PD-L1 internalization in human whole blood, normal human blood (Biological Specialty Corp, Colmar. Pa.) was incubated in the presence or absence of a concentration range of test compounds and 1 ng/mL human interferon γ (R&D Systems Inc. Minn. […] Blood was then stained with PD-L1 (MIH1, eBioscience; or BD Biosciences San Jose, Calif.), CD14 (Life Technologies, Carlsbad, Calif.) for 30 minutes in the dark at room temperature. Whole Blood/red cells were lysed/fixed (lysis buffer BD Biosciences) for 5 minutes at 37° C. in the dark and then centrifuged at 1600 RPM for 5 minutes. Cells were resuspended in Stain Buffer (BD Bioscience, San Jose, Calif.) and transferred into 96 well round bottom plates (Corning). Cells were gated on CD14+(BD Biosciences) and PD-L1 expression determined by mean fluorescence intensity (MFI) (BD LSRFortessa™ X-20). IC50 determination was performed by fitting the curve of compound percent inhibition versus the log of the compound concentration using the GraphPad Prism 7.0 software.

For data set [3], the system named is U2OS/PD-L1 cells and Jurkat-PD-1-SHP cells. Kind of data set: Src homology region 2 domain-containing phosphatase (SHP) assay. As to conditions: read-out: SHP IC50; PathHunter chemiluminescence, 2 hours. On the procedure:
U2OS/PD-L1 cells (DiscoveRx Corporation) were maintained in McCoy's 5A medium with addition of 10% FBS, 0.25 μg/mL Puromycin. After removing the culture media, the cell medium was replaced with assay medium (RPMI1640 medium with 1% FBS). The U2OS/PD-L1 cells were then added in 384-well black clear bottom assay plate (CELLCOAT® Tissue Culture Plates, Greiner Bio-One) at 5000 cells per well in 20 μL assay medium. Test compounds were prepared by serial dilution in DMSO and 125 nL compound were first transferred to the 384 REMP plate well (Thermofisher) by ECHO liquid handler (Labcyte) followed with addition of 27.5 μL assay medium. 5 µL/well compounds in the assay medium were transferred to the cell plate with 0.05% DMSO in the final assay at 0.25 μM. Jurkat-PD-1-SHP cells (DiscoveRx Corporation) were cultured in RPMI1640 medium supplemented with 10% FBS, 250 μg/mL Hygromycin B, 500 μg/mL G418. After the replacement of culture media with assay medium, 5,000 Jurkat-PD-1-SHP cells in 20 μL were dispensed into each well. The assay plate was incubated at 37° C., 5% CO2 for 2 hours before 2.5 μL PathHunter reagent 1 (DiscoveRx Corporation) were added to each well. The assay plate was shaken for 1 min at 350 rpm in the dark followed with addition of 10 μL PathHunter reagent 2 (DiscoveRx Corporation). Chemiluminescent signal was recorded with TopCount reader (Perkin Elmer) after incubation at room temperature for 1 hour. Wells with DMSO were served as the positive controls and wells containing no cells were used as negative controls. IC50 determination was performed by fitting the curve of percentage of control activity versus the log of the compound concentration using the GraphPad Prism 6.0 software.

Data set [4] concerns PD-L1 aAPC/CHO-K1 cells and Jurkat-PD-1-NFAT effector cells. Kind of data set: Nuclear factor of activated T-cells (NFAT) assay. Particulars: read-out: NFAT EC50; luminescence, 24 hours. On the procedure:
PD-L1 aAPC/CHO-Klcells (Promega) were maintained in F-12 medium with addition of 10% FBS, 200 μg/mL Hygromycin B, 250 μg/mL Geneticin (G418). Jurkat-PD-1-NFAT effector cells (Promega) were cultured in RPMI 1640 medium supplemented with 10% FBS, 100 μg/mL Hygromycin B, 500 μg/mL G418. The culture media of PD-L1 aAPC/CHO-K1 cells were first replaced with assay medium (RPMI1640 medium with 1% FBS). The PD-L1 aAPC/CHO-Klcells were then added in a white 384-well white clear bottom assay plate (CELLCOAT® Tissue Culture Plates, Greiner Bio-One) at 8000 per well in 10 μL assay medium. Test compounds were prepared by serial dilution in DMSO and 0.8 μL test compounds in DMSO were first transferred to the 384 REMP plate well (Thermofisher) by PlateMate Plus (Thermofisher) followed with addition of 50 μL plating medium. 5 μL compounds in the assay medium were transferred to the cells with 0.4% DMSO in the final assay at 2 μM. After removing the culture media, 10,000 Jurkat-PD-1-NFAT effector cells in 5 μL assay medium was dispensed into each well. The assay plate was incubated at 37° C., 5% CO2 for 24 hours. After the assay plate was equilibrated to room temp for 15 minutes, 20 μL/well of Bio-Glo™ reagent (Promega) were added. After 8 minutes incubation at room temperature, luminescence was read at with Pherastar microplate reader (BMG Labtech). The fold of induction (FOI) was calculated based on the ratio of luminescence normalized to the DMSO wells within each assay plate. The maximum percentage of induction was reported based on the ratio between the highest FOI of each compound and the maximum FOI of control compound within each assay plate. Wells with DMSO were served as the negative controls and wells containing control compound with the highest FOI were used as positive controls. EC50 determination was performed by fitting the curve of percent control activity versus the log of the compound concentration using the GraphPad Prism 6.0 software.

Data set [5] is described as follows: In vivo pharmacokinetics in rats. Particulars: rat, cassette dosing; for Cl / Vss / t1/2: 1.0 mg/kg IV; for AUC0-inf / Cmax / F: 3.0 mg/kg PO. As to the method: For in vivo pharmacokinetic experiments, test compounds were administered to male Sprague Dawley rats or male and female Cynomolgus monkeys intravenously or via oral gavage. For intravenous (IV) dosing, test compounds were dosed at 0.5 to 1 mg/kg using a formulation of 10% dimethylacetamide (DMAC) in acidified saline via IV bolus for rat and 5 min or 10 min IV infusion for monkey. For oral (PO) dosing, test compounds were dosed at 1.0 to 3.0 mg/kg using 5% DMAC in 0.5% methylcellulose in citrate buffer (pH 3.5). Blood samples were collected at predose and various time points up to 24 hours postdose. All blood samples were collected using EDTA as the anticoagulant and centrifuged to obtain plasma samples. The plasma concentrations of test compounds were determined by LC-MS methods. The measured plasma concentrations were used to calculate PK parameters by standard noncompartmental methods using Phoenix® WinNonlin software program (version 7.0, Pharsight Corporation).
In rats and monkeys, cassette dosing of test compounds were conducted to obtain preliminary PK parameters.

On to `Cc1c(Nc2nccc3cc(CN4CC[C@H](O)C4)cnc23)cccc1-c1cccc(NC(=O)c2nc3c(n2C)CCN(C[C@H]2CC[C@@H](C(=O)O)CC2)C3)c1Cl`, for which the IC50 in data set [1] came out at 2.1 nM; in data set [2], 93 nM; in data set [3] it was 14 nM. Further, in data set [4], the EC50 was 35 nM.
For the compound `Cc1c(Nc2nccc3cc(CN4CC[C@@H](O)C4)cnc23)cccc1-c1cccc(NC(=O)c2nc3c(n2C)CCN(CC[C@H]2CC[C@H](C(=O)O)CC2)C3)c1Cl`, in data set [1], the IC50 was 2.7 nM. Besides, the IC50 in data set [2] is 67 nM. Further, the IC50 in data set [3] was 5.1 nM. In data set [5], this compound displayed a Cl of 25 mL/min/kg, a Vss of 3.82 L/kg, a t1/2 of 2.55 h and an AUC0-inf of 0.205 µM·h. In data set [5], this compound showed a Cmax of 29 nM and an F of 7%. In data set [4], the EC50 was determined as 15 nM.
Turning to `Cc1c(Nc2nccc3cc(CN4CC[C@@](C)(O)C4)cnc23)cccc1-c1cccc(NC(=O)c2nc3c(n2C)CCN(C[C@H]2CC[C@@H](C(=O)O)CC2)C3)c1Cl`, the IC50 was determined as 1.8 nM in data set [1], 65 nM in data set [2] and 6.7 nM in data set [3]. For the same compound, in data set [4], the EC50 is 21 nM.
For `Cc1c(NC(=O)c2nc3c(n2C)CCN(CC[C@H]2CC[C@H](C(=O)O)CC2)C3)cccc1-c1cccc(Nc2nccc3cc(CN4CC[C@@H](O)C4)cnc23)c1C`, the values for the IC50 in data set [1], in data set [2] and in data set [3] were 2.5 nM, 116 nM and 5.3 nM, respectively. The EC50 in data set [4] is 27 nM.
Consider `Cc1c(NC(=O)c2nc3c(n2C)CCN(CC[C@H]2CC[C@H](C(=O)O)CC2)C3)cccc1-c1cccc(Nc2nccc3cc(CN4CC[C@@H](O)C4)cnc23)c1Cl`, for which the IC50 in data set [1] is under 1.5 nM; in data set [2], 84 nM; in data set [3], 5.7 nM. The EC50 in data set [4] amounted to 23 nM.
With `Cc1c(Nc2nccc3cc(CN4CC[C@@H](O)C4)cnc23)cccc1-c1cccc(NC(=O)c2nc3c(n2C)CCN(C[C@H]2CC[C@@H](C(=O)O)CC2)C3)c1Cl`, the IC50 in data set [1] worked out at 2 nM. The IC50 in data set [2] was determined as 85 nM. The IC50 in data set [3] amounted to 5.6 nM. Moreover, in data set [5], the Cl was 23.2 mL/min/kg, the Vss worked out at 3.73 L/kg, the t1/2 was 2.78 h and the AUC0-inf turned out to be 0.412 µM·h. In data set [5], this compound showed a Cmax of 61 nM and an F of 14%. Also, the EC50 in data set [4] is 18 nM.
As to `Cc1c(Nc2nccc3cc(CN4CC[C@@](C)(O)C4)cnc23)cccc1-c1cccc(NC(=O)c2nc3c(n2C)CCN(CC[C@H]2CC[C@H](C(=O)O)CC2)C3)c1Cl`, the IC50 in data set [1] amounted to 2.2 nM; in data set [2] it was 90 nM; in data set [3] it was 6 nM. Moreover, in data set [4], the EC50 came to 24 nM.
For the compound `Cc1c(Nc2nccc3cc(CN4CC[C@@H](O)C4)cnc23)cccc1-c1cccc(NC(=O)c2nc3c(n2C)CCN(CC[C@H]2CC[C@@H](C(=O)O)CC2)C3)c1Cl`, the IC50 was determined as 2.5 nM in data set [1], 92 nM in data set [2] and 6.9 nM in data set [3]. Also, the EC50 in data set [4] amounted to 26 nM.
With `Cc1c(Nc2nccc3cc(CN4CCCC4)cnc23)cccc1-c1cccc(NC(=O)c2nc3c(n2C)CCN(C[C@H]2CC[C@@H](C(=O)O)CC2)C3)c1Cl`, the IC50 in data set [1] came out at 1.5 nM; in data set [2] it was 196 nM; in data set [3], 5.5 nM. In addition, the EC50 in data set [4] was found to be 43 nM.
In the case of `Cc1c(Nc2ncnc3cc(CN4CC[C@@H](O)C4)cnc23)cccc1-c1cccc(NC(=O)c2nc3c(n2C)CCN(C[C@H]2CC[C@H](C(=O)O)CC2)C3)c1Cl`, the IC50 in data set [1] was 2.5 nM; in data set [2] it was 169 nM; in data set [3], 2.5 nM. In addition, in data set [4], the EC50 worked out at 37 nM.
In the case of `Cn1c(C(=O)Nc2cccc(-c3cccc(Nc4nccc5cc(CN6CC[C@@H](O)C6)cnc45)c3Cl)c2Cl)nc2c1CCN(CC[C@H]1CC[C@H](C(=O)O)CC1)C2`, the results for the IC50 in data set [1], in data set [2] and in data set [3] were 1.8 nM, 98 nM and 6.7 nM, respectively. In addition, in data set [4], the EC50 worked out at 18 nM.
The corresponding values for `Cc1c(Nc2nccc3cc(CN[C@H]4CCC[C@@H]4O)cnc23)cccc1-c1cccc(NC(=O)c2nc3c(n2C)CCN(C[C@H]2CC[C@H](C(=O)O)CC2)C3)c1Cl` are 1.5 nM, 471 nM, 5.4 nM and 138 nM.
